Apparent affinities of Ab-14 variants for a coronavirus HR2 peptide

Values reported by Engelhart et al. 2022, doi:10.1038/s41597-022-01779-4 (FLAb copy).

Target peptide (SARS-CoV-2 spike, HR2 region): PDVDLGDISGINAS

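Phage display of a naive human antibody library on the peptide gave the parent. Library AAYL49 holds single substitutions and randomly drawn double and triple substitutions in the CDRs. The scFvs were displayed on barcoded MATa yeast, the peptide on MATalpha yeast. The frequency of each diploid, read from paired DNA barcodes, reflects how well the two displayed proteins bind. A regression on co-assayed BCL2-family reference pairs converts the normalised counts of each replicate to an apparent Kd. The assay was run in three technical replicates.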

Parent: Ab-14, a human scFv built as VH, a 15-residue (Gly4Ser)3 linker, VL. Only the CDRs of the heavy chain vary.
VH: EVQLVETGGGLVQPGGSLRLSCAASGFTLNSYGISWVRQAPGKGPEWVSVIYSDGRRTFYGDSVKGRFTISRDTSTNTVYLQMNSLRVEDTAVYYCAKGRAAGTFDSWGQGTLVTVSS
VL: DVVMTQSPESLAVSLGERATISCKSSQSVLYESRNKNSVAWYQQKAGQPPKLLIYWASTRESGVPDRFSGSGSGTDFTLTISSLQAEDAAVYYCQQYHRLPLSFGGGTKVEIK

Each variant is given by its three heavy chain CDRs, as the data file delimits them; those of the parent are GFTLNSYGIS, VIYSDGRRTFYGDSVK, GRAAGTFDS. The read-out is the apparent dissociation constant on a log10 scale (nM): the lower, the stronger. Replicates are averaged; those with no signal do not enter the mean. An entry "nd" has no value in the source: the pair was not observed among the diploids in that replicate. This suggests poor binding but is not conclusive. Nonspecific signal, from three strains lacking the peptide, appeared in 15% of pairings of library AAYL49, centred on 4.06 (5% of these signals below 2.83); values are not corrected for it. The control count says in how many pairings with the empty strains this scFv gave a signal, with their mean in brackets. For reference, the parent read 0.65 as the reference entry and 4.11 (one replicate of three) as a member of this library.

CDR-H1	CDR-H2	CDR-H3	log10 Kd (nM) by replicate	log10 Kd (nM), mean	control signals
GFTLNSYGIS	VFYSDGNRTFYGDSVK	VRAAGTFDS	nd 4.06 nd	4.06	4 of 9 (4.66)
GFTLNSNGIS	VFYSDGRRTFYGDSVY	GRAAGTFDS	nd 4.80 nd	4.80	1 of 9 (3.38)
GFTLISYFIS	VIYSDGRRTFYGDSVK	GRAAGTFDS	nd nd nd	nd	2 of 9 (3.81)
GFILNSYGIS	VIYSDGRRTFCLDSVK	GRAAGTFDS	4.12 3.86 5.17	4.39	2 of 9 (4.80)
GFGLNSYGIS	SIYSDGRRTFYGDSVK	GRAAGTFDS	nd nd nd	nd	3 of 9 (4.21)
GFTLTSCGIS	VAYSDGRRTFYGDSVK	GRAAGTFDS	nd nd nd	nd	0 of 9
GFTLNKYGIS	VIYSMGRRTFYGDSVK	GRAAGTFDS	nd 3.75 nd	3.75	1 of 9 (3.47)
KFTLNSYGIS	VIYSIGRRTFYGDSVK	GRAAGTFDS	nd nd nd	nd	1 of 9 (4.00)
GFTLNSKGIS	VIYSPGRRTFYGDSVK	GRAAYTFDS	nd nd nd	nd	0 of 9
GFTLNSYGIS	VIYSDGRRWFYGDSVK	GKACGTFDS	nd nd nd	nd	0 of 9
GFTLNSYMIS	VIYSDGRRTFYGDSVK	GRMAGTFVS	nd nd nd	nd	0 of 9
GFTLNSYDIS	VIYSDGRTTFYGDSAK	GRAAGTFDS	4.42 3.50 4.34	4.09	5 of 9 (4.16)
GATLNSYGIS	VIYSDGRRTFYGDSVK	GHASGTFDS	3.39 3.44 3.33	3.39	2 of 9 (3.33)
GFTLNSYAIS	AIYSDGLRTFYGDSVK	GRAAGTFDS	nd nd nd	nd	0 of 9
NQTLNSYGIS	VIYSDGRRTFYGDSVK	GRRAGTFDS	3.99 2.74 3.25	3.33	3 of 9 (3.53)
GFKLNSYGIS	VIYSDGRRTFPQDSVK	GRAAGTFDS	4.28 nd nd	4.28	3 of 9 (4.20)
GQTLNSYGHS	VIYSDGRRTFYGHSVK	GRAAGTFDS	3.62 nd nd	3.62	1 of 9 (2.34)
GFYLNSYRIS	VRYSDGRRTFYGDSVK	GRAAGTFDS	nd nd nd	nd	0 of 9
GFTLNSYGIS	VIYSDGRRTFYGDRVK	GRAHGEFDS	nd nd nd	nd	0 of 9
GFTYNSYGIS	TIYSDGLRTFYGDSVK	GRAAGTFDS	nd 3.56 3.17	3.36	0 of 9
GFTLNSYGIS	VIYSDGEWTFYGDSVK	QRAAGTFDS	nd nd nd	nd	0 of 9
RFTRNSYGIS	VIYSDGRRRFYGDSVK	GRAAGTFDS	nd nd nd	nd	1 of 9 (3.31)
GFTLNSYGIS	VIISDGRRTFYGDSVK	GEAFGTFDS	nd nd nd	nd	1 of 9 (4.72)
GFGLNSYGIS	VIYSDIRRTFYGYSVK	GRAAGTFDS	nd 3.50 nd	3.50	1 of 9 (4.91)
GFTLNSYGIK	VIYSDGRRTFFGDIVK	GRAAGTFDS	nd nd nd	nd	1 of 9 (3.84)
GFTLMSYGIS	VIDSDGRRTFYGDQVK	GRAAGTFDS	nd nd nd	nd	3 of 9 (3.59)
GFTLCSYGIS	VIYSDGRRQFYGDSVK	GTAAGTFDS	3.82 2.95 3.25	3.34	5 of 9 (3.96)
GFTSNSYGIS	VIYSDGRRTDYGDSVK	GRAAHTFDS	nd nd nd	nd	0 of 9
GFTLNSYGIS	YIYSDGRRSFYGYSVK	GRAAGTFDS	nd nd nd	nd	0 of 9
GCTLNSYCIS	VIYSDGRRTFYGDSVK	GRAAHTFDS	nd nd 5.61	5.61	1 of 9 (4.39)
GFTLNSYGIS	VIVSDGRRTFYGDSVK	GRAATTFDP	4.90 nd 4.00	4.45	2 of 9 (3.71)
GFTLNSYGIS	VIYSRGRRGFYGDKVK	GRAAGTFDS	nd nd 3.39	3.39	4 of 9 (4.10)
GFTWNSYGIS	VIYSDGRRTFYGDSVK	GWAAGTFDS	nd nd 3.86	3.86	2 of 9 (3.96)
GFTLWSYGIS	VIYSDGRRTFYGDSRK	GRAAGTFCS	5.46 nd nd	5.46	1 of 9 (3.20)
GFTLNSYGII	VIYSDNRRTFYGDSVK	GRAAGTFKS	nd nd nd	nd	1 of 9 (3.85)

A selection of 5 entries from above:

{"CDR-H1": "GATLNSYGIS", "CDR-H2": "VIYSDGRRTFYGDSVK", "CDR-H3": "GHASGTFDS", "log10 Kd (nM) by replicate": "3.39 3.44 3.33", "log10 Kd (nM), mean": "3.39", "control signals": "2 of 9 (3.33)"}
{"CDR-H1": "GFTLMSYGIS", "CDR-H2": "VIDSDGRRTFYGDQVK", "CDR-H3": "GRAAGTFDS", "log10 Kd (nM) by replicate": "nd nd nd", "log10 Kd (nM), mean": "nd", "control signals": "3 of 9 (3.59)"}
{"CDR-H1": "GFTYNSYGIS", "CDR-H2": "TIYSDGLRTFYGDSVK", "CDR-H3": "GRAAGTFDS", "log10 Kd (nM) by replicate": "nd 3.56 3.17", "log10 Kd (nM), mean": "3.36", "control signals": "0 of 9"}
{"CDR-H1": "GFTLWSYGIS", "CDR-H2": "VIYSDGRRTFYGDSRK", "CDR-H3": "GRAAGTFCS", "log10 Kd (nM) by replicate": "5.46 nd nd", "log10 Kd (nM), mean": "5.46", "control signals": "1 of 9 (3.20)"}
{"CDR-H1": "GFTLNSYGIS", "CDR-H2": "VIYSDGEWTFYGDSVK", "CDR-H3": "QRAAGTFDS", "log10 Kd (nM) by replicate": "nd nd nd", "log10 Kd (nM), mean": "nd", "control signals": "0 of 9"}